These are literature values, as cited in publication PMC4628734.

The chains behind the UniProt entries cited, without tags or fusion partners. Where a name states a change or a piece, a line headed by the entry shows the natural chain unless it says otherwise. Residues count along the entry.
UniProt Q71F23: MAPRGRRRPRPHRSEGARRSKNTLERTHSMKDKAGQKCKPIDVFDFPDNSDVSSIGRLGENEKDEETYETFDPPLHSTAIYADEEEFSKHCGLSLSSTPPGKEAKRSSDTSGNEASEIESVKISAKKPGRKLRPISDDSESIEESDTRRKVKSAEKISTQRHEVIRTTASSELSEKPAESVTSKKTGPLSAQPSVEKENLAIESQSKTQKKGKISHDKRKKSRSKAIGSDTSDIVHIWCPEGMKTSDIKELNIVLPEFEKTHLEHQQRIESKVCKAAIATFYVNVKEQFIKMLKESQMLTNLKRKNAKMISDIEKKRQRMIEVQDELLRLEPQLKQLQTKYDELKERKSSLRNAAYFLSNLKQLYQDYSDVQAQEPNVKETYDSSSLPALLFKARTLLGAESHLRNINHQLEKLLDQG
UniProt P53350, 367-603: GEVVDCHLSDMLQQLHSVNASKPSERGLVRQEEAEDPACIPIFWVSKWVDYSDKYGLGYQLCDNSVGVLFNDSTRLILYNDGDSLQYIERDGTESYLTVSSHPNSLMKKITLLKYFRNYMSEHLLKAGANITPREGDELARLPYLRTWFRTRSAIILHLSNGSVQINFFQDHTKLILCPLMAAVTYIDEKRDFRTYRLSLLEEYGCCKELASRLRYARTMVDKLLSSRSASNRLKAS

A word on the pKd: it is the negative decadic logarithm of the Kd, by convention in mol/L.

The series has as its target PBIP1 (Homo sapiens) (UniProt Q71F23).

pKd: −log10 of the molar value.

In the case of PLK-1 PBD (from UniProt P53350), the negative logarithm of the Kd (pKd) is 6.35.
